Each structure is given as a SMILES string. The entries are a selection whose mix differs from that of the whole data set. Some salts and complexes are drawn in separate pieces, as the source files them; their charges need not balance. The source made the active and inactive calls. Cut-off read from the data, not from the text of the source: active = inhibition above about 50%; inactive = the rest.

Protein sequences, listed by entry. Tags and fused reporters are not part of them.
UniProt P13612, whole entry, looked up: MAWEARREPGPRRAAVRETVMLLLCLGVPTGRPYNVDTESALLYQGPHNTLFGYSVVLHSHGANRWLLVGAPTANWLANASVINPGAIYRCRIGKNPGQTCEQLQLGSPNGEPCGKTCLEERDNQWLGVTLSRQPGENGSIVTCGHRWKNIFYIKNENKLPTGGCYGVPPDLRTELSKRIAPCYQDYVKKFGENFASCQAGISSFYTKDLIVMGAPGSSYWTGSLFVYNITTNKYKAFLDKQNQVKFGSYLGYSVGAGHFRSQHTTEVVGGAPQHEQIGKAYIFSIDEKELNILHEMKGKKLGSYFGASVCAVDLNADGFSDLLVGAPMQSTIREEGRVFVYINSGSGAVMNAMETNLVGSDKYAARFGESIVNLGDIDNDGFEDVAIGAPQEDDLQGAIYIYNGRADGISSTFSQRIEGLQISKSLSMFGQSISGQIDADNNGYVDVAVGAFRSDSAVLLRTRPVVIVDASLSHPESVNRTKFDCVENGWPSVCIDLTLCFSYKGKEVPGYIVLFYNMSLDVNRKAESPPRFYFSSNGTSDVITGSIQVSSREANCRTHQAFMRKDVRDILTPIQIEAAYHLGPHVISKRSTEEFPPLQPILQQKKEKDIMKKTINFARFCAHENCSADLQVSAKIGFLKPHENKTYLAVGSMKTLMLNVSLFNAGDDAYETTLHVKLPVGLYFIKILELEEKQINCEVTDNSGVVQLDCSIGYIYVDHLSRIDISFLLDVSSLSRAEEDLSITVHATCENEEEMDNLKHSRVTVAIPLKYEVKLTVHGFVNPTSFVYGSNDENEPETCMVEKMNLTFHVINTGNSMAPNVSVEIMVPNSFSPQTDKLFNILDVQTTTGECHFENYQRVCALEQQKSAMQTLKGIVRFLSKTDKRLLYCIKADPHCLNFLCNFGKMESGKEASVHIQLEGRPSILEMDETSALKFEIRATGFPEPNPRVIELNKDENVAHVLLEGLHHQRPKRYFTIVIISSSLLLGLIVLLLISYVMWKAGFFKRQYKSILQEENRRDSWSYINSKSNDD

The target of this experiment is Integrin alpha-4 (Homo sapiens) (UniProt P13612). Description: VLA-4 integrin binding inhibitors – MLPCN library, flow cytometry, VLA-4 expressing cells, VLA-4 allosteric modulator project, primary screen (AID 2557). The settings on record: ligand binding flow cytometry, stronger effect = higher value, about 7 µM as worked out from the volumes in the protocol.
A word on the inhibition: it is the relative decrease from the control value, in per cent. Take `COc1ccc(OP(C)(=O)Nc2cccc(Br)c2)cc1` (centres undefined): the inhibition is inactive: 48.7%.

For the molecule `CN(C)CCOC(=O)C(O)(c1ccccc1)C1CCCCC1` (centres undefined), the inhibition was inactive: -9.79%.

In the case of `COc1ccc(NP(C)(=O)Oc2ccccc2OC)cc1` (centres undefined), the inhibition was inactive: 2.8%.

For `O=[N+]([O-])c1ccc(OP2(=O)COCCO2)cc1` (centres undefined), the inhibition is inactive: 0%. Consider `O=[N+]([O-])c1cc([N+](=O)[O-])c(NCC2CCS(=O)(=O)C2)c([N+](=O)[O-])c1` (centres undefined), for which the inhibition was inactive: 12.7%. The figure for `CP(=O)(Nc1ccc(SC(F)(F)F)cc1)Oc1ccc(F)cc1` (centres undefined) is inactive: 13.7%; for `CCOP(C)(=S)SCC(=O)NC(C)(CC)C(=O)O` (centres undefined) it is inactive: 2.62%; for `CP(=O)(Nc1ccc2c(c1)OCCO2)Oc1ccccc1` (centres undefined) it is inactive: 11.6%. Under `Cc1ccccc1NP(C)(=O)Nc1ccccc1C` stands inactive: -4.38%. Under `CP(=O)(Nc1ccccc1F)Oc1ccccc1` (centres undefined) stands inactive: 2.4%; under `CC(C)c1ccc(OP(C)(=O)Nc2ccc(SC(F)(F)F)cc2)cc1` (centres undefined), inactive: 31.9%.

`O=C(OC1CN2CCC1CC2)c1ccc([N+](=O)[O-])cc1` (centres undefined): the inhibition is inactive: -2.64%. The figure for `O=C(OCCN1CCN(CCOCc2ccccc2)CC1)C(O)(c1ccccc1)c1ccccc1` is inactive: 20.6%; for `COc1ccc2c(c1O)-c1c(O)c(OC)cc3c1[C@H](C2)[N+](C)(C)CC3.O=[N+]([O-])c1cc([N+](=O)[O-])c([O-])c([N+](=O)[O-])c1[O-]` it is inactive: 20.2%. Regarding `CCOC(=O)c1ccc(NP(C)(=O)Oc2ccc(F)cc2)cc1` (centres undefined), the inhibition is inactive: -5.67%. Under `COc1ccc(OP(C)(=O)Nc2ccc(SC(F)(F)F)cc2)cc1` (centres undefined) stands inactive: 4.34%; under `CCN(CC)CCCOC(=O)C(O)(c1ccccc1)C1CCCCC1` (centres undefined), inactive: 20.8%. Turning to `CP(=O)(Nc1ccccc1)Oc1ccc(F)cc1` (centres undefined), the inhibition was inactive: 16.5%.

Consider `O=[N+]([O-])c1cc([N+](=O)[O-])c(OC2CCCCC2O)c([N+](=O)[O-])c1` (centres undefined), for which the inhibition is inactive: 20.3%. `CCCCCOc1ccc(NP(C)(=O)Oc2ccc(Cl)cc2Cl)cc1` (centres undefined): the inhibition was inactive: 18.9%. Under `Cc1cc(C)cc(OP(C)(=O)Nc2cccc(C(F)(F)F)c2)c1` (centres undefined) stands inactive: -14%.

For the molecule `COc1ccccc1OP(C)(=O)Nc1ccc(C)c(C)c1` (centres undefined), the inhibition is inactive: 4.79%. The figure for `COc1ccc(OP(C)(=O)Nc2ccccc2Br)cc1` (centres undefined) is inactive: 13.3%; for `Cc1nc2ccc3ccccc3c2o1.O=[N+]([O-])c1cc([N+](=O)[O-])c(O)c([N+](=O)[O-])c1` it is inactive: 7.43%. The figure for `CP(=O)(OCCOc1ccccc1)OCCOc1ccccc1` is inactive: -3.25%. Under `CP(=O)(Nc1ccc(Cl)cc1Cl)Oc1ccccc1` (centres undefined) stands inactive: -0.16%; under `COc1ccccc1OP(C)(=O)Nc1ccc(Br)cc1` (centres undefined), inactive: 5.35%. Consider `COc1ccc(OP(C)(=O)Nc2ccccn2)cc1` (centres undefined), for which the inhibition was inactive: -1.34%. Under `CN(C)CCOC(=O)C(O)(c1ccccc1)C1CCCC1` (centres undefined) stands inactive: -0.78%; under `O=[N+]([O-])c1cc([N+](=O)[O-])c(Nc2ccccn2)c([N+](=O)[O-])c1`, inactive: 5.24%; under `Cc1c(NP(C)(=O)Oc2ccc(C(C)C)cc2)c(=O)n(-c2ccccc2)n1C` (centres undefined), inactive: 5.9%. On to `COc1ccccc1OP(C)(=O)Nc1ccc(C)cc1C` (centres undefined), for which the inhibition is inactive: -1.15%. The figure for `CP(=O)(Nc1ccccn1)Oc1ccccc1` (centres undefined) is inactive: 5.06%.

Turning to `CCc1ccc(OP(C)(=O)O)cc1`, the inhibition is inactive: 3.18%. Under `COc1ccc(OP(C)(=O)Nc2ccc(Br)cc2)cc1` (centres undefined) stands inactive: 1.59%; under `CCN(CC)CC(O)COC(=O)C(O)(c1ccccc1)C1CCCCC1` (centres undefined), inactive: 6.2%; under `O=C(OCCCN1CCCC1)C(O)(c1ccccc1)C1CCCCC1` (centres undefined), inactive: -7.06%.

On to `COc1ccccc1OP(C)(=O)Nc1c(C)n(C)n(-c2ccccc2)c1=O` (centres undefined), for which the inhibition was inactive: 4.19%. The figure for `CCc1ccc(OP(C)(=O)Nc2cccnc2)cc1` (centres undefined) is inactive: 13.5%. As for `CP(=O)(Oc1ccccc1)N1CCOC1=O` (centres undefined), the inhibition was inactive: 23.6%. As to `CC(C)(C)c1ccc(OP(C)(=O)O)cc1`, the inhibition is inactive: -4.9%. The figure for `COc1ccccc1OP(C)(=O)Nc1ccccc1Br` (centres undefined) is inactive: -0.32%. The figure for `CP(=O)(Nc1ccc(Cl)cc1)Oc1ccc(F)cc1` (centres undefined) is inactive: 3.63%; for `CN(C)C(=O)c1c([N+](=O)[O-])cc([N+](=O)[O-])cc1[N+](=O)[O-]` it is inactive: 0%; for `Nc1ccc2c(ccc3cccnc32)n1.O=[N+]([O-])c1cc([N+](=O)[O-])c(O)c([N+](=O)[O-])c1` it is inactive: -7.18%. Under `CCOC(=O)c1ccc(NP(C)(=O)Oc2ccc(Cl)cc2)cc1` (centres undefined) stands inactive: 9.3%; under `CP(=O)(OC12CC3CC(CC(C3)C1)C2)OC12CC3CC(CC(C3)C1)C2`, inactive: 5.51%. With `CP(=S)(Nn1cnnc1)Oc1ccccc1` (centres undefined), the inhibition was inactive: 18.9%. Under `CP(=O)(Nc1ccccc1Br)Oc1ccccc1` (centres undefined) stands inactive: 13%. Consider `COc1ccccc1OP(C)(=O)Nc1ccccc1` (centres undefined), for which the inhibition was inactive: 11.3%.

For the molecule `CP(=O)(Oc1ccccc1)OC(c1ccccc1)C(F)(F)F` (centres undefined), the inhibition is inactive: -4.25%.

Turning to `CP(=O)(Nc1ccc(SC(F)(F)F)cc1)Oc1ccc(Cl)cc1` (centres undefined), the inhibition is inactive: 6.17%. Under `Cc1cccc(C)c1OP(C)(=O)Nc1ccc(SC(F)(F)F)cc1` (centres undefined) stands inactive: -2.26%; under `Cc1cc(C)cc(OP(C)(=O)Nc2ccc(SC(F)(F)F)cc2)c1` (centres undefined), inactive: 8.27%; under `CCc1ccc(OP(C)(=O)N2CCN(c3ccc([N+](=O)[O-])cc3)CC2)cc1` (centres undefined), inactive: 0.1%.

With `CP(=O)(NC(=O)Nc1ccccc1)Oc1ccccc1` (centres undefined), the inhibition is inactive: 6.56%.

`O=[N+]([O-])c1cc([N+](=O)[O-])c(O)c([N+](=O)[O-])c1.c1ccc(Oc2ccncc2)cc1`: the inhibition was inactive: 22.9%. With `CCOC(=O)c1ccc(NP(C)(=O)Oc2ccc(OC)cc2)cc1` (centres undefined), the inhibition is inactive: -0.88%. The figure for `CCOP(C)(=S)SCC(=O)NC(C)C(=O)O` (centres undefined) is inactive: 19.5%; for `CP(=O)(Nc1ccccn1)Oc1ccc(Cl)cc1` (centres undefined) it is inactive: -17%; for `CCN(CC)CCCOC(=O)C(O)(c1ccccc1)c1ccccc1` it is inactive: 18.7%. Under `O=[N+]([O-])c1cc([N+](=O)[O-])c(Nc2cccnc2)c([N+](=O)[O-])c1` stands inactive: 28%.

Take `O=[N+]([O-])c1ccc2c(c1)C=Nc1ccccc1O2`: the inhibition was inactive: 4.88%. Turning to `Cc1cccc(C)c1OP(C)(N)=O` (centres undefined), the inhibition is inactive: 2.4%.

With `CC(C)(C)c1ccc(OP(C)(=O)Nc2ccc(SC(F)(F)F)cc2)cc1` (centres undefined), the inhibition is inactive: 19.1%.

Regarding `Cc1ccc(NP(C)(=O)Oc2ccccc2)c(C)c1` (centres undefined), the inhibition is inactive: -0.17%. Under `COc1ccccc1OP(C)(=O)Nc1ccc(C)cc1` (centres undefined) stands inactive: -3.05%; under `CCOC(=O)c1ccc(NP(C)(=O)Oc2ccccc2)cc1` (centres undefined), inactive: 15.2%; under `Cc1cc(C)cc(OP(C)(N)=O)c1` (centres undefined), inactive: -0.51%. For `COc1ccc(OP(C)(=O)Nc2cccc(F)c2)cc1` (centres undefined), the inhibition is inactive: -8.2%.

`COc1ccccc1OP(C)(=O)Nc1cc(Cl)ccc1C` (centres undefined): the inhibition was inactive: -1.08%. The figure for `O=C(O)c1cccc(Nc2c([N+](=O)[O-])cc([N+](=O)[O-])cc2[N+](=O)[O-])c1` is inactive: 8.42%; for `CC1=NCCc2c1[nH]c1ccccc21.O=[N+]([O-])c1cc([N+](=O)[O-])c(O)c([N+](=O)[O-])c1` it is inactive: -0.18%; for `COc1ccccc1OP(C)(=O)Nc1cccc(Br)c1` (centres undefined) it is inactive: 12.2%. Under `CCOC(=O)c1ccc(NP(C)(=O)Oc2cc(C)cc(C)c2)cc1` (centres undefined) stands inactive: 12.6%; under `Cc1cc(C)cc(OP(C)(=O)Nc2ccc(C)cc2C)c1` (centres undefined), inactive: -3.41%; under `Cc1ccc(C)c(NP(C)(=O)Oc2ccccc2)c1` (centres undefined), inactive: 8.35%. For the molecule `CP(=O)(Nc1cccc(Br)c1)Oc1ccccc1` (centres undefined), the inhibition is inactive: 5.38%. Under `Cc1cc(C)cc(OP(C)(=O)Nc2ccccn2)c1` (centres undefined) stands inactive: -2.84%; under `O=[N+]([O-])c1cc([N+](=O)[O-])c(-n2nnc3ccccc32)c([N+](=O)[O-])c1`, inactive: 9.89%. Take `O=[N+]([O-])c1cc([N+](=O)[O-])c(-c2cnn(-c3ccccc3)c2)c([N+](=O)[O-])c1`: the inhibition was inactive: -0.42%. Under `Cc1nc2ccc3ccccc3c2s1.O=[N+]([O-])c1cc([N+](=O)[O-])c(O)c([N+](=O)[O-])c1` stands inactive: 0.49%; under `CCOC(=O)C(CC)C1=NC(C)(C)Cc2ccccc21.O=[N+]([O-])c1cc([N+](=O)[O-])c(O)c([N+](=O)[O-])c1` (centres undefined), inactive: 5.43%; under `O=[N+]([O-])c1cc([N+](=O)[O-])c(Nc2nnnn2CCO)c([N+](=O)[O-])c1`, inactive: -0.02%. Under `CC1=C2N=C(C=C3N=C(C(C)=C4[N-][C@@](C)([C@@H]5N=C1[C@](C)(CCC(=O)NC[C@@H](C)OP(=O)([O-])O[C@H]1[C@@H](O)[C@@H](n6cnc7cc(C)c(C)cc76)O[C@@H]1CO)[C@H]5CC(N)=O)[C@@](C)(CC(N)=O)[C@@H]4CCC(N)=O)[C@@](C)(CC(N)=O)[C@@H]3CCC(N)=O)C(C)(C)[C@@H]2CCC(N)=O.[C-]#N.[Co+3]` stands inactive: 6.63%; under `CN1CCCCC1COC(=O)C1(O)c2ccccc2CCc2ccccc21` (centres undefined), inactive: 7.2%; under `COc1ccccc1OP(C)(=O)Nc1c(C)cccc1C` (centres undefined), inactive: 3.87%. The figure for `CP(=O)(Nc1ccc(SC(F)(F)F)cc1)Oc1ccccc1` (centres undefined) is inactive: 14.3%; for `CCCOc1ccc(NP(C)(=O)Oc2ccc(Cl)cc2)cc1` (centres undefined) it is inactive: 7.27%.
